What was measured:
[1] = SD
[2] = SD; remark: listed apart in the source
[3] = pH 7.25; SD

Substance: teicoplanin
- Drug recovery (%) from control group at 24 h [1]: 89.06 (14.40) %
- Mean drug recovery, Control-3 h (Maquet experiment) [1]: 101% (5%)
- Mean drug recovery, Control-6 h (Maquet experiment) [1]: 96% (0%)
- Mean drug recovery, Control-12 h (Maquet experiment) [1]: 88% (5%)
- Mean drug recovery, Control-24 h (Maquet experiment) [1]: 83% (14%)
- Mean drug recovery, Maquet circuit, 5 min [2]: 97% (2%)
- Mean drug recovery, Maquet circuit, 15 min [2]: 98% (2%)
- Mean drug recovery, Maquet circuit, 30 min [2]: 100% (5%)
- Mean drug recovery, Maquet circuit, 1 h [2]: 102% (3%)
- Mean drug recovery, Maquet circuit, 3 h [2]: 93% (10%)
- Mean drug recovery, Maquet circuit, 6 h [2]: 91% (8%)
- Mean drug recovery, Maquet circuit, 12 h [2]: 86% (5%)
- Mean drug recovery, Maquet circuit, 24 h [2]: 80% (13%)
- Drug recovery (%) from circuits at 24 h [3]: 66.64 (24.37) %
